In the assay the target is bovine trypsin (bovine). The assay is described as follows: not stated; Ki 'recorded for BPTI' against trypsin; no method and no citation given.

The term Ki denotes the equilibrium dissociation constant of an inhibitor or competing ligand from its target. A higher Ki goes with a looser hold on the target.

In turn, “bovine pancreatic trypsin inhibitor (from UniProt P00974 36-93) (natural protein)” showed a Ki of 0.15 nM. This counts as sub-nanomolar.

The record behind these values is PMC5016662.
